The values below are quoted from earlier work in paper PMC4613811 (Lung cancer (Amsterdam, Netherlands), 2015).

The data set deals with NSCLC with EGFR activating mutations. The note with it: cited from earlier work.

Regarding `COc1cc2ncnc(Nc3ccc(F)c(Cl)c3)c2cc1OCCCN1CCOCC1` [gefitinib], the “time to development of resistance in the majority of patients” value (NSCLC patients with EGFR activating mutations) was “less than 1 year”. For the same molecule, the “response rates (RRs)” value (NSCLC patients with known EGFR activating mutations) was 60–70%.
